# Test results reported in patent publication US4188387A, “Amino-aryl 1,24-triazines useful in the treatment of diverse pain” (priority 1977, dated 1980).
# Assay: in vivo
# Settings: mouse
# Protocol: The toxicity study was carried out on the conventional mouse, weighing about 20 g.
# The substances were administered orally and intraperitoneally.
# The LD50 was calculated in accordance with the method of L. C. MILLER and M. L. TAINTER, Proc. Soc. exper.
compound,measurement,setting,value
"CN(C)c1ccc(-c2nc(=O)n(C)nc2-c2ccc(N(C)C)cc2)cc1 [ST 729, 2-methyl 3-oxo 5,6-di(paradimethylamino-phenyl) as triazine]",LD50,"ip, intraperitoneal, read-out: LD50 intraperitoneally",200 mg/kg
same,LD50,"oral, read-out: LD50 orally",> 1000 mg/kg

# Read-outs that look alike come from different tables or passages of the source.
